Test results published in US20170202973A1 (GENENTECH, INC., priority 2009, published 2017).
Read-outs that look alike come from different tables or passages of the source.

Key:
[1] = Phase I, cited from earlier work
[2] = earlier Phase II, […] every 3 weeks; cited from earlier work
[3] = T-DM1 conjugate, […] IV every 3 weeks
[4] = of 110 treated, 70 discontinued, data cutoff

Substance: trastuzumab-MCC-DM1 [T-DM1]
- maximum tolerated dose (MTD) ([1]; IV infusion every 3 weeks): 3.6 mg/kg
- DLT: patients with Grade 4 thrombocytopenia ([1]; treated at 4.8 mg/kg): 2 of 3
- patients requiring dose reduction [2]: 3 out of 112
- Number of Patients with Dose Reductions to 2.4 mg/kg (110 patients, initial analysis): 6 patients
- Number of Patients with Dose Reductions to 3.0 mg/kg (110 patients, initial analysis): 11 patients
- Number of Patients with Dose Reductions to 2.4 mg/kg (110 patients, updated analysis): 7 patients
- patients who died from hepatic dysfunction (110 treated patients): One
- dose-limiting cardiotoxicity or new safety signals (at the dose and schedule tested): no dose-limiting cardiotoxicity or new safety signals
- Reason for Dose Reduction: Grade 1 AST (count in footnote of Table 3): 1
- Reason for Dose Reduction: Grade 2 AST (count in footnote of Table 3): 1
- Reason for Dose Reduction: Grade 2 AST + ALT (count in footnote of Table 3): 3
- Reason for Dose Reduction: Grade 2 Leukopenia (count in footnote of Table 3): 2
- Reason for Dose Reduction: Grade 2 Thrombocytopenia (count in footnote of Table 3): 1
- Reason for Dose Reduction: Grade 3 AST Elevation (count in footnote of Table 3): 1
- Reason for Dose Reduction: Grade 3 Elevation AST + ALT (count in footnote of Table 3): 2
- Reason for Dose Reduction: Grade 4 Thrombocytopenia (count in footnote of Table 3): 1
- patients that discontinued treatment with one or more adverse events, % [4]: 5.5%
- patients that discontinued treatment with one or more adverse events, number [4]: 6 patients
- Clearance (CL) [3]: 8.3 mL/day/kg
- terminal halflife (t½) [3]: 96 h
